Measurements from PubChem BioAssay AID1628 (Sanford-Burnham Center for Chemical Genomics, 2009).
This is a selection; strong and weak results do not stand in their true shares. Potency and affinity values are given separately. Activity calls are given as the source filed them.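 Rule for the calls: active = z-score of insulin promoter reporter brightness in nuclei below -3 at 5 µM, with at least 500 cells counted; inconclusive = wells with under 500 cells, flagged as toxic or sparse; inactive = the rest.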

Experiment: insulin promoter down-regulators in MIN6 cells, imaging, high-content screening, mouse beta cells (AID 1628)
Settings: MIN6 insulin promoter GFP reporter, at 5 µM, active compounds read low

| Compound | z-score |
| --- | --- |
| c1nnnn1CCn1cnnn1 | inactive: -1.04 |
| CC(C)C(=O)NC(Sc1ccccc1)C(Cl)(Cl)Cl (centres undefined) | inactive: -0.11 |
| O=P(Nc1nccs1)(c1ccccc1)c1ccccc1 | inactive: 0.21 |
| C[C@H]1OP(=O)(Oc2ccccc2)[C@H](O)[C@H](O)[C@H]1N=[N+]=[N-] (some centres undefined) | inactive: 0.41 |
| O=P(Nc1nc2ccccc2s1)(c1ccccc1)c1ccccc1 | inactive: 0.45 |
| O=P(Nc1ccccn1)(c1ccc(Br)cc1)c1ccc(Br)cc1 | inactive: 0.75 |
| O=C(OC1CN2CCC1CC2)c1cccc(Cl)c1 (centres undefined) | inactive: -0.3 |
| Nc1ccc([As](=O)(O)c2ccc([N+](=O)[O-])cc2)cc1 | inactive: 0.48 |
| C(Cc1nn[nH]n1)Cc1nn[nH]n1 | inactive: 0.33 |
| O=[As](O)(c1ccccc1)c1ccc(O)cc1 | inactive: 0 |
| O=[N+]([O-])c1ncn(CCn2cnc([N+](=O)[O-])n2)n1 | inactive: -0.47 |
| CCOC(=O)NC(Sc1ccccc1)C(Cl)(Cl)Cl (centres undefined) | inactive: -0.6 |
| Cc1ccc(NP(=O)(Oc2cccc(C)c2)Oc2cccc(C)c2)nc1 | inactive: 0.15 |
| c1ccc(-c2nn[nH]n2)c(-c2nn[nH]n2)c1 | inactive: -0.11 |
| CCNC(=S)/N=C(\N)N[N+](=O)[O-] | inactive: -0.59 |
| O=C(NC1CCS(=O)(=O)C1)NP(=S)(Oc1ccccc1)Oc1ccccc1 (centres undefined) | inactive: -0.14 |
| CN(C)C(=O)Oc1noc2ccccc12 | inactive: 0.17 |
| Cc1ccccc1OP(=O)(Nc1ccccn1)Oc1ccccc1C | inactive: -0.06 |
| Cc1ccc(OP(=O)(Nc2ccccn2)Oc2ccc(C)cc2)cc1 | inactive: 0.2 |
| CC(=O)NC(SC(=S)N(CC(C)C)CC(C)C)C(Cl)(Cl)Cl (centres undefined) | inactive: -0.43 |
| COC(=O)c1cc2c(s1)N=C(c1ccccc1)N(C)P2(=O)N1CCOCC1 (centres undefined) | inactive: -0.4 |
| CC(C)(C)C(=O)NC(Sc1ccccc1)C(Cl)(Cl)Cl (centres undefined) | inactive: -0.44 |
| CCOc1ccc(C2=NCC(CBr)S2)cc1 (centres undefined) | inactive: -0.43 |
| O=P1(Nc2nc3ccc(Cl)cc3s2)COc2ccccc2O1 (centres undefined) | inactive: 0.16 |
| CC(=O)Nc1ccc(Oc2c([N+](=O)[O-])cc([N+](=O)[O-])cc2[N+](=O)[O-])cc1 | inactive: 0.12 |
| CC(=O)Nc1ccc([As](=O)(O)O)c(O)c1 | inactive: 0.28 |
| C[C@@H]1C=CCP(=O)(Oc2ccccc2)O1 (some centres undefined) | inactive: -0.09 |
| C[C@H]1OP(=O)(Oc2ccccc2)C[C@@H]2O[C@@H]21 (some centres undefined) | inactive: 0.65 |
| Clc1ccc(Cl)c(NC2=NCC(CBr)S2)c1 (centres undefined) | inactive: -0.2 |
